Experimental data from patent US12507703B2, “Methods, devices and compositions for preserving human milk” (The Trustees of Princeton University, priority 2023, dated 2025).

Test system: lipase
Test: Lipase/lipolysis assay (EnzChek Lipase Substrate, quenched BODIPY-fatty acid conjugate) on stored human milk; also: test concentration or dose not given here
Details: stored 1 week at −20° C.
[1] = compound added to fresh human milk, thawed at room temperature, RFU <400 considered a hit
[2] = Food-Sourced Compound Library compound added to fresh human milk, thawed at room temperature, RFU <400 considered a hit
[3] = Food Additive Library compound added to fresh human milk, thawed at room temperature, RFU of <400 considered a hit
[4] = Biolog PM4 compound added to fresh human milk, RFU <400 = hit
[5] = Biolog PM1 compound added to fresh human milk, RFU <400 = hit
[6] = Biolog PM2a compound added to fresh human milk, RFU <400 = hit
[7] = Biolog PM5 compound added to fresh human milk, RFU <400 = hit

Row | Lipase (RFU) [1] | Lipase (RFU) [3] | Compound | also measured
1 | 979.6645 RFU |  | C#C[C@]1(O)CC[C@H]2[C@@H]3CCC4=CC(=O)CC[C@@H]4[C@H]3CC[C@@]21C [Norethindrone] | 
2 |  | 653.6185 RFU | CC(C)=CCC[C@](C)(O)[C@@H]1CC=C(C)CC1 [alpha-Bisabolol] | 
3 | 1154.431 RFU |  | Cc1ncc(CO)c(CN)c1O.Cl.Cl [Pyridoxylamine (dihydrochloride)] | 
4 | 945.9568 RFU |  | O=C(O)CC(CC(=O)O)C(=O)O [Tricarballylic Acid] | Lipase (RFU) [5]: 749.9547 RFU
5 | 941.7523 RFU | 935.1292 RFU | CCCCCCCCC=O [Nonanal] | 
6 | 920.1312 RFU |  | COc1ccc(-c2cc(=O)c3c(O)c(OC)c(O)cc3o2)cc1 [Pectolinarigenin] | 
7 | 1168.882 RFU |  | Oc1ccc(C=Cc2cc(O)cc(O)c2)cc1 [Resveratrol] | 
8 |  | 1048.24 RFU | Rebaudioside C | 
9 |  | 904.3535 RFU | CC1=CCC(O)(C(C)C)CC1 (stereo not drawn) [Terpinen-4-ol] | 
10 |  | 681.5677 RFU | CC(=O)Oc1ccccc1 [Phenyl acetate] | 
11 | 964.4253 RFU | 1026.646 RFU | CC(=O)C(=O)O [Pyruvic Acid] | Lipase (RFU) [5]: 757.2242 RFU
12 |  | 821.4356 RFU | CC(=O)OCC(COC(C)=O)OC(C)=O [Triacetin] | 
13 | 734.6904 RFU | 1252.835 RFU | C=C(C)[C@@H]1CCC2=CC(=O)C[C@@H](C)[C@]2(C)C1 [Nootkatone] | 
14 |  | 837.9833 RFU | Cc1cc2nc3c(=O)[nH]c(=O)nc-3n(C[C@H](O)[C@H](O)[C@H](O)CO)c2cc1C [Riboflavin] | Lipase (RFU) [7]: 1037.621 RFU
15 | 1035.17 RFU |  | COc1cc(O[C@@H]2O[C@H](CO[C@@H]3O[C@H](CO)[C@@H](O)[C@H](O)[C@H]3O)[C@@H](O)[C@H](O)[C@H]2O)c2c(O)c3c(=O)cc(C)oc3cc2c1 [Rubrofusarin gentiobioside] | 

Continued, compound first:

Row | Compound | Lipase (RFU) [1] | Lipase (RFU) [3] | also measured
16 | Nc1nc2c(nc(O)n2[C@H]2C[C@H](O)[C@@H](CO)O2)c(=O)[nH]1 [8-Hydroxy-2′-deoxyguanosine] | 909.8926 RFU |  | 
17 | CCCCCCCCCCCCCCCO [Compound 1-Pentadecanol, 1-Pentadecanol] | 991.3473 RFU |  | 
18 | COc1cc(O)c(C(=O)/C=C/c2ccccc2)c(OC)c1 [Flavokawain B] |  |  | Lipase (RFU) [2]: 921.0596 RFU
19 | COc1c2occc2cc2ccc(=O)oc12 [Methoxsalen] | 1482.513 RFU |  | 
20 | CC(C(=O)O)C(O)(CC(=O)O)C(=O)O (stereo not drawn) [2-Methylcitric acid] |  |  | Lipase (RFU) [2]: 1204.199 RFU
21 | COc1ccc(C=O)c(O)c1 [2-Hydroxy-4-methoxybenzaldehyde] | 1139.589 RFU | 932.9902 RFU | 
22 | CCCCCCCC/C=C\CCCCCCCC(N)=O [Oleamide] |  |  | Lipase (RFU) [2]: 1128.919 RFU
23 | O=c1cc(-c2ccc(O)cc2)oc2cc(O)c([C@@H]3O[C@H](CO)[C@@H](O)[C@H](O)[C@H]3O)c(O)c12 [Isovitexin] | 851.2752 RFU |  | 
24 | CC(=O)c1ccccc1 [Acetophenone] | 830.3825 RFU | 1002.631 RFU | 
25 | CSC[C@H](N)C(=O)O [S-Methyl-L-Cysteine] |  |  | Lipase (RFU) [4]: 642.8406 RFU
26 | CCCCCc1ccco1 [Compound 2-Pentylfuran, 2-Pentylfuran] |  | 858.2494 RFU | 
27 | O=C1O[C@H]([C@@H](O)CO)C(O)=C1O [L-Ascorbic acid] |  | 707.8035 RFU | 
28 | CC1(C)CC[C@]2(CO)CC[C@]3(C)C(=CC[C@@H]4[C@@]5(C)CC[C@H](O)C(C)(C)[C@@H]5CC[C@]43C)[C@@H]2C1 [Erythrodiol] | 872.6485 RFU |  | 
29 | CCC(C)(O)C(=O)O (stereo not drawn) [2-Hydroxy-2-methylbutanoic acid] |  |  | Lipase (RFU) [2]: 1032.358 RFU
30 | C/C=C/c1ccc(OC)cc1 [Anethole] | 829.3991 RFU |  | 
31 | CC1(C)CC[C@]2(C(=O)O)CC[C@]3(C)C(=CC[C@@H]4[C@@]5(C)C[C@@H](O)[C@H](O)[C@@](C)(CO)[C@@H]5CC[C@]43C)[C@@H]2C1 [Arjunolic acid] |  |  | Lipase (RFU) [2]: 761.4994 RFU
32 | Cc1ncc(C[n+]2csc(CCO[P@](=O)(O)OP(=O)(O)O)c2C)c(N)n1 [Thiamine pyrophosphate] |  |  | Lipase (RFU) [2]: 823.7716 RFU
33 | Cl.Nc1ccn([C@H]2C[C@H](O)[C@@H](CO)O2)c(=O)n1 [2′-Deoxycytidine (hydrochloride)] | 810.1072 RFU |  | 
34 | O=C(O)c1cccnc1 [Niacin] |  | 937.0411 RFU | 
35 | O=C(O)C(O)c1ccccc1 (stereo not drawn) [Mandelic acid] | 715.2042 RFU |  | 
36 | CSCC[C@H](N)C(=O)O [L-Methionine] |  | 1119.509 RFU | Lipase (RFU) [6]: 910.747 RFU; Lipase (RFU) [4]: 997.9974 RFU; Lipase (RFU) [7]: 992.2289 RFU; Lipase (RFU) [2]: 974.8047 RFU

Row | Compound | Lipase (RFU) [1] | Lipase (RFU) [3] | also measured
37 | Cc1cc2nc3c(=O)[nH]c(=O)nc-3n(C[C@H](O)[C@H](O)[C@H](O)COP(=O)(O)OP(=O)(O)OC[C@H]3O[C@@H](n4cnc5c(N)ncnc54)[C@H](O)[C@@H]3O)c2cc1C | 1000.841 RFU |  | 
38 | N[C@@H](Cc1cc(I)c(Oc2ccc(O)c(I)c2)c(I)c1)C(=O)O [Liothyronine (sodium)] | 679.7045 RFU |  | 
39 | CC(CCC(=O)NCC(=O)O)C1CCC2C3CCC4CC(O)CCC4(C)C3CC(O)C12C (stereo not drawn) [Glycodeoxycholic Acid] |  |  | Lipase (RFU) [2]: 959.2681 RFU
40 | O=C[C@@H](O)[C@@H](O)[C@H](O)[C@H](O)COP(=O)(O)O [D-Mannose-6-Phosphate] |  |  | Lipase (RFU) [4]: 906.9952 RFU
41 | CC(O)CCO (stereo not drawn) [1,3-Butanediol] |  | 1167.529 RFU | 
42 | CC1=CC(=O)CC(C)(C)C1 [Isophorone] | 1116.305 RFU | 775.739 RFU | 
43 | CCCCCCC/C=C/C(=O)O [(E)-2-Decenoic acid] |  | 763.8796 RFU | 
44 | CC(C)=CCCC(C)CCO (stereo not drawn) [Citronellol] | 760.9768 RFU | 1084.092 RFU | 
45 | CC(=O)c1ccccc1O [2′-Hydroxyacetophenone] |  | 1043.491 RFU | 
46 | Cn1ccc(=O)n(C)c1=O [1,3-Dimethyluracil] |  |  | Lipase (RFU) [2]: 1001.839 RFU
47 | CCC(O)C(=O)[O-].[Na+] (stereo not drawn) [Sodium 2-hydroxybutanoate] |  |  | Lipase (RFU) [2]: 851.898 RFU
48 | Cc1cc(O)cc(C)c1O [2,6-Dimethylhydroquinone] | 791.4555 RFU |  | 
49 | OCC=Cc1ccccc1 [Cinnamyl Alcohol] |  | 1000.49 RFU | Lipase (RFU) [2]: 740.7814 RFU
50 | CCC(C)C(=O)C(=O)O (stereo not drawn) [3-Methyl-2-oxovaleric acid] |  | 1424.933 RFU | Lipase (RFU) [2]: 984.6358 RFU
51 | CCCCCCCCCCCCCC(=O)O [Myristic acid] |  | 851.218 RFU | 
52 | CCCC(C)C(=O)O (stereo not drawn) [2-Methylvaleric acid] | 1241.438 RFU | 913.3585 RFU | 
53 | N[C@H](CS)C(=O)O [D-Cysteine] | 631.2532 RFU |  | Lipase (RFU) [4]: 846.0712 RFU
54 | NC(=O)[C@@H](O)[C@@H](O)[C@H](O)[C@@H](O)C=O [Glucuronamide] |  |  | Lipase (RFU) [5]: 916.3562 RFU
55 | O=C(O)CC(=O)C(=O)O [Oxaloacetic Acid] |  |  | Lipase (RFU) [7]: 810.9101 RFU
56 | CC(C)C(=O)C(=O)[O-].[Na+] [Sodium 3-methyl-2-oxobutanoate] |  |  | Lipase (RFU) [2]: 1025.486 RFU
57 | N[C@@H](CCSC[C@H](N)C(=O)O)C(=O)O [Cystathionine] |  |  | Lipase (RFU) [4]: 980.1408 RFU

Row | Compound | Lipase (RFU) [1] | Lipase (RFU) [3] | also measured
58 | CCCCCCCCCCCCOC(=O)c1cc(O)c(O)c(O)c1 [Dodecyl gallate] |  | 869.3552 RFU | 
59 | Cc1ccc(C(C)C)cc2c(C)ccc1-2 [Guaiazulene] |  |  | Lipase (RFU) [2]: 999.8541 RFU
60 | COc1ccc(-c2cc(=O)c3c(OC)cc(OC)c(OC)c3o2)cc1OC [Isosinensetin] | 1065.41 RFU |  | 
61 | COc1cc(C[C@H]2C(=O)OC[C@@H]2Cc2ccc(OC)c(OC)c2)ccc1O [Arctigenin] | 811.3139 RFU |  | 
62 | O=C(O)COP(=O)(O)O [Phospho- Glycolic Acid] |  |  | Lipase (RFU) [4]: 939.7996 RFU
63 | COc1ccc(/C=C/C(=O)O)cc1OC [(E)-3,4-Dimethoxycinnamic acid] | 953.2591 RFU |  | 
64 | Cn1c(=O)[nH]c2nc[nH]c2c1=O [Compound 1-Methylxanthine, 1-Methylxanthine] | 907.9205 RFU |  | 
65 | CCCCCCCC/C=C\CCCCCCCC(=O)NCCO [Oleoylethanolamide] |  |  | Lipase (RFU) [2]: 1064.732 RFU
66 | CCCCCCCCCCCCCCCC(=O)NCc1ccccc1 [N-Benzylpalmitamide] | 825.0433 RFU |  | 
67 | CCOC(=O)CC(C)=O [Ethyl acetoacetate] |  | 1035.068 RFU | 
68 | CC(C)=CCc1c(-c2ccc(O)cc2O)oc2c3c(cc(O)c2c1=O)OC(C)(C)C=C3 [Morusin] | 883.3222 RFU |  | 
69 | C=CCC(C)C(=O)O (stereo not drawn) [2-Methyl-4-pentenoic Acid] |  | 842.8124 RFU | 
70 | O=C(O)CC(=O)O [Malonic Acid] |  |  | Lipase (RFU) [6]: 792.7976 RFU
71 | CC(C)=CCC/C(C)=C\CO [Nerol] |  | 1033.533 RFU | 
72 | CC(C)=CCC/C(C)=C/C=O [Citral] |  | 1048.78 RFU | 
73 | O=C(O)/C=C\C(=O)O [Maleic Acid] |  |  | Lipase (RFU) [2]: 614.1141 RFU
74 | O=C(CO)N[C@H]1[C@H]([C@H](O)[C@H](O)CO)OC(O)(C(=O)O)C[C@@H]1O (stereo partly drawn) [N-Glycolylneuraminic acid] |  |  | Lipase (RFU) [2]: 1126.23 RFU
75 | CCCCCCCC/C=C\CCCCCCCCCCCC(=O)O [Erucic acid] | 1149.145 RFU |  | 
76 | CCCCCCCC/C=C\CCCCCCCC(=O)OCC [Ethyl oleate] |  | 988.2104 RFU | 
77 | COc1cc(CNC(=O)CCCC/C=C/C(C)C)ccc1O [Capsaicin] |  | 1060.242 RFU | 
78 | O=C(O)CCCCCCCCC(=O)O [Sebacic Acid] |  |  | Lipase (RFU) [6]: 998.9916 RFU
